According to patent publication US12605424B2 (priority 2019, dated 2026):

Key:
[1] = tested on: mice and rats exposed to Cl2 gas; conditions: IM injection of nitrite, post-Cl2 gas exposure; cited from earlier work
[2] = tested on: C57BL/6 mice exposed to Br2 or Cl2 gas; test: Acute Br2 (600 ppm) or Cl2 (400 ppm) exposure of adult mice, hemopexin IM 1 h later: RBC damage and ENaC activity; conditions: for RBC plasma membrane protein carbonyl adducts: RBCs 1-day post exposure
[3] = Br2, hemopexin 4 mg/kg BW, lungs 24 h post exposure
[4] = single intramuscular injection of hemopexin (4 μg/kg body weight), one-hour post halogen gas exposure

Substance	ALI and reactive airways [1]	RBC plasma membrane protein carbonyl adducts ([2]; Br2 600 ppm 30 min, hemopexin 4 mg/kg BW IM 1 h later)	open probability (P0) of 4 pS channels in AT2 cells [2, 3]	open probability (P0) of 16 pS channels in AT2 cells [2, 3]	RBC plasma membrane protein carbonyl adducts ([2]; Cl2 400 ppm 30 min, hemopexin 4 mg/kg BW IM 1 h later)	RBC hemolysis under mechanical stress ([2]; mice exposed to Br2 or Cl2 gas, hemopexin 4 mg/kg BW IM 1 h later)	lung ENaC activity [2, 4]	plasma CFH [2, 4]
nitrite	decreases ALI and reactive airways	–	–	–	–	–	–	–
Hemopexin	–	attenuated	significant recovery	significant recovery	attenuated	reduced RBC hemolysis	improved lung ENaC activity	decreased plasma CFH
